Results taken from US20230148588A1, “METHODS, COMPOSITIONS, AND SYSTEMS FOR ENHANCING EX-VIVO ORGAN PERFUSION” (University Health Network, priority 2020, published 2023).

Tests used:
[1] = system: human pulmonary microvascular endothelial cells (HPMEC); experiment: Basic cellular function of cells exposed to Steen solution and its modifications (IncuCyte Live Cell Analysis); type: cell-based; conditions: different concentrations of Albumin (1, 2, 4, 7%) and Dextran 40 (5, 25, 50 g/L) in Steen solution
From the text: (§1) Methods: Human pulmonary microvascular endothelial cells (HPMEC) and human lung epithelial cells (BEAS-2B) were used to determine the effects of Steen solution components on basic cellular function. Cell confluence, apoptosis and migration were visualized and quantified by IncuCyte® Live Cell Analysis System in real-time. A simulated EVLP cell culture model was established by replacing regular culture medium with cold lung preservation solution and followed by “perfusion” with normothermic Steen solution or its modifications. Cell apoptosis was quantified. Porcine lung EVLP was performed using Steen solution with added nutrients.
(§2) Steen solution contains phosphate and bicarbonate buffer, glucose (as an energy source), a high concentration of albumin (7%, to maintain high colloidal osmolarity), and a low dose of Dextran 40 (5 g/L, to improve microcirculation).
(§3) The effects of glutamine in Steen solution on mitochondrial respiration and glycolytic function were examined using a Seahorse XFe analyzer.

[2] = system: human lung epithelial cells (BEAS-2B); experiment: as above; type: cell-based; conditions: different concentrations of Albumin (1, 2, 4, 7%) and Dextran 40 (5, 25, 50 g/L) in Steen solution
From the text: as §1, §2, §3

Question: How did the “cell confluence, apoptosis and migration” value [1] turn out when “Albumin: colloid component of Steen solution, tested at 1, 2, 4, 7%” was run?
Answer: The value was “no major differences”.

Question: And the “cell confluence, apoptosis and migration” value [2]?
Answer: The value was “no major differences”.
